Chains of the proteins cited; added tags and fusions are not shown. Residues count along the entry.
UniProt Q15389, 20-498: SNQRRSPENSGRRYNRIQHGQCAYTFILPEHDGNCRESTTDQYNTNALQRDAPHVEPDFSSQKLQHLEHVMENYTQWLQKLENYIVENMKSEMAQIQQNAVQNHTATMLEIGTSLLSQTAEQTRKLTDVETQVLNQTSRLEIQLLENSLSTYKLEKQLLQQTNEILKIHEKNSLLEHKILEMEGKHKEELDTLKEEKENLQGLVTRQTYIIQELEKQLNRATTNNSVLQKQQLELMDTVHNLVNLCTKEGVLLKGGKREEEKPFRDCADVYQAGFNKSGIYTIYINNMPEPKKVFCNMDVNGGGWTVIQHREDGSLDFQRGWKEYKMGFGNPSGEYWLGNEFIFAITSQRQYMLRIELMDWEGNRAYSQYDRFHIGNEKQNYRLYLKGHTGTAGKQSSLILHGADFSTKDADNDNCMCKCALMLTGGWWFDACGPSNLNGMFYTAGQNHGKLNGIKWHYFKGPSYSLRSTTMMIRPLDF
UniProt O15123, 19-496: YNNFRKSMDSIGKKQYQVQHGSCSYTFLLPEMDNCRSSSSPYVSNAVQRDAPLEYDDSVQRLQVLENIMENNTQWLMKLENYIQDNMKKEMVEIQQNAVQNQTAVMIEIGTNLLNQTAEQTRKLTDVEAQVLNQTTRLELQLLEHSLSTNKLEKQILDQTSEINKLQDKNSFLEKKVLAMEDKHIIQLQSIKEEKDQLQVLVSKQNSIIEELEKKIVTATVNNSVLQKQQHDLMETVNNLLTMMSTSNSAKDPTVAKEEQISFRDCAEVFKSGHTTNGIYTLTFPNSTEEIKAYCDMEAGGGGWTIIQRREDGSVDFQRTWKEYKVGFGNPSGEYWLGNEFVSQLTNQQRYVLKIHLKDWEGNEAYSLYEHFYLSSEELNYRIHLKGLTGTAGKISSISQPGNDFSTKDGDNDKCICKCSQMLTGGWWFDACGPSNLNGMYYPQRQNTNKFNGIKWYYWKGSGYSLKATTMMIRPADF
UniProt O35608, 19-496: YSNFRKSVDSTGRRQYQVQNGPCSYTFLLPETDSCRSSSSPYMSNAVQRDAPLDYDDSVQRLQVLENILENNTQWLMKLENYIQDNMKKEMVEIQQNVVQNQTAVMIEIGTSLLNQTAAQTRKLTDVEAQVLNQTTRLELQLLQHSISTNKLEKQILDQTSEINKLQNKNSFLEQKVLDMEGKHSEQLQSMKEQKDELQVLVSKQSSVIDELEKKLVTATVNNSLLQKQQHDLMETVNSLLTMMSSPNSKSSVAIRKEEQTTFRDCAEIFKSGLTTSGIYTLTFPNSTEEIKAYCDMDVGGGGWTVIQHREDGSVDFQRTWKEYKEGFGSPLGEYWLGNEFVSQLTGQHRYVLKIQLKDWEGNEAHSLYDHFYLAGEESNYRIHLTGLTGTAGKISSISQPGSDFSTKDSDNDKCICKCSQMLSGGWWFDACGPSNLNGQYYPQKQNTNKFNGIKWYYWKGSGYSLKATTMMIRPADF

In patent US7205275:

Key:
Test in all cases: competition ELISA vs Tie-2
Details in all cases: designed binder
[1] = target: human Ang-1 (human) (UniProt Q15389)
[2] = target: human Ang-2 (human) (UniProt O15123)
[3] = target: mouse Ang-2 (mouse) (UniProt O35608)

Measured: IC50

Negative Control Peptibody 4883
> 1000 nM: [1] | [2] | [3]
